# From US20100092974A1, “METHODS FOR SCREENING FOR MODULATORS OF CCRL2” (The Board of Trustees of the Leland Stanford Junior …, priority 2008, published 2010)
# Biological target: T1, mCCRL2 (Mus musculus, UniProt O35457)
# T1 construct: The coding regions of mCCRL2, huCCRL2, mCRTH2, and huCCR10 were amplified from genomic DNA; expressed in transfected cells
# T1 sequence (O35457 1-360): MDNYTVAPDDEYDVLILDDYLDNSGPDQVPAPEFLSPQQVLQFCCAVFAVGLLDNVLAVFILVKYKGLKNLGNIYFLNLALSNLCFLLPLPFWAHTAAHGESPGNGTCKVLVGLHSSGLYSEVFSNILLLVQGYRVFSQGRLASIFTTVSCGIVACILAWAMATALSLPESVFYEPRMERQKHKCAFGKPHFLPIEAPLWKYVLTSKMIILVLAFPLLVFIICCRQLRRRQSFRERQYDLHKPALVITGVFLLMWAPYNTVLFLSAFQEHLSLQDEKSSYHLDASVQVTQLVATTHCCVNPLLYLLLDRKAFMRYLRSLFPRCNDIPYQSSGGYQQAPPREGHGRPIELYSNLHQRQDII
# Experiment: 125I-chemerin competition binding, mCCRL2-HA/L1.2 transfectants
# Conditions: 1 nM 125I-chemerin; EC50 could not be determined
smiles,measurement,value
C[C@H](NC(=O)[C@H](Cc1ccccc1)NC(=O)[C@H](CCC(N)=O)NC(=O)CNC(=O)[C@@H]1CCCN1C(=O)[C@H](Cc1ccccc1)NC(=O)[C@@H](N)Cc1ccc(O)cc1)C(=O)N[C@@H](Cc1ccccc1)C(=O)N[C@@H](CO)C(=O)O [chemerin peptide],competition for iodinated chemerin in CCRL2 binding,inefficient competitor
